Chains of the proteins cited; added tags and fusions are not shown. Residues count along the entry.
UniProt P03956, 100-469 limits assumed: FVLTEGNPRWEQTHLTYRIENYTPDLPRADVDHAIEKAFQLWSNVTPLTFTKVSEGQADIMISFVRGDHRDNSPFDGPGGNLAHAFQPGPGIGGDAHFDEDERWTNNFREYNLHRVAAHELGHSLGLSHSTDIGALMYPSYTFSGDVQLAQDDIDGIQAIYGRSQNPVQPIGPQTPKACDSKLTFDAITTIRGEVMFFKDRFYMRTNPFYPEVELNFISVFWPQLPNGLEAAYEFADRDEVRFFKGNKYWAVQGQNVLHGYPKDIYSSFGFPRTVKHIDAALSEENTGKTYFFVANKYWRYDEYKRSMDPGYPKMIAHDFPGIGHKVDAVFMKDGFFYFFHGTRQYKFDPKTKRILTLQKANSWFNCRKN

According to US6747027B1, “Thiol sulfonamide metalloprotease inhibitors” (Pharmacia Corporation, priority 1996, dated 2004):

Experiments:
[1] = biological target: recombinant human MMP-13 (Homo sapiens, UniProt P45452); test: In vitro metalloprotease inhibition, fluorogenic peptide assay (MMP-13); settings: read-out: MMP-13 IC50 (nanomolar); recombinant human MMP-13, APMA activated; fluorogenic MCA peptide substrate 4 uM; pH 7.5, room temperature
Description: (§1) Certain of the compounds prepared in the manner described in Examples 1 to 223 were tested for activity by an in vitro assay. Following the procedures of Knight et al., FEBS Lett. 296(3):263 (1992). Briefly, 4-aminophenylmercuric acetate (APMA) or trypsin activated MMPs were incubated with various concentrations of the inhibitor compound at room temperature for 5 minutes (0.02% 2-mercapto-ethanol added to buffer for thiol compounds with 5 minutes or overnight incubation). More specifically, recombinant human MMP-13 and MMP-1 enzymes were prepared in laboratories of the inventors' employer. MMP-13 was expressed in baculovirus as a proenzyme, and purified first over a heparin agarose column and then over a chelating zinc chloride column. The proenzyme was activated by APMA for use in the assay. MMP-1 expressed in transfected HT-1080 was provided by Dr. Howard Welgus of Washington University, St. Louis, Mo. The enzyme was also activated using APMA and was then purified over a hydroxamic acid column.
(§2) The enzyme substrate is a methoxycoumarin-containing polypeptide having the following sequence:
(§3) MCA-ProLeuGlyLeuDpaAlaArgNH^2, wherein MCA is methoxycoumarin and Dpa is 3-(2,4-dinitrophenyl)-L-2,3-diaminopropionyl alanine. This substrate is commercially available from Baychem as product M-1895.
(§4) The buffer used for assays contained 100 mM Tris-HCl, 100 mM NaCl, 10 mM CaCl2 and 0.05 percent polyethyleneglycol(23) lauryl ether at a pH value of 7.5. Assays were carried out at room temperature, and dimethyl sulfoxide (DMSO) at a final concentration of 1 percent was used to dissolve inhibitor compound.
(§5) The assayed inhibitor compound in DMSO/buffer solution was compared to an equal amount of DMSO/buffer with no inhibitor as control using microfluor™ white plates (Dynatech). The inhibitor or control solution was maintained in the plate for 10 minutes and the substrate was added to provide a final concentration of 4 uM.
(§6) In the absence of inhibitor activity, a fluorogenic peptide is cleaved at the gly-leu peptide bond, separating the highly fluorogenic peptide from a 2.4-dinitrophenyl quencher, resulting in an increase of fluorescence intensity (excitation at 328 nm/emmision at 415 nm). Inhibition was measured as a reduction in fluorescent intensity as a function of inhibitor concentration, using a Perkin Elmer L550 plate reader. The IC50 values were calculated from those values. The results are set forth in the Inhibition Table below, reported in terms of IC50 to three significant figures.

[2] = biological target: recombinant human MMP-1 (Homo sapiens, UniProt P03956); test: In vitro metalloprotease inhibition, fluorogenic peptide assay (MMP-1); settings: read-out: MMP-1 IC50 (nanomolar); recombinant human MMP-1, APMA activated; fluorogenic MCA peptide substrate 4 uM; pH 7.5, room temperature
Description: as §1, §2, §3, §4, §5, §6

SMILES | IC50 [1] | IC50 [2]
CC(=O)SC[C@@H](C)N(CCN1CCOCC1)S(=O)(=O)c1ccc(Sc2ccccc2)cc1 | 0.6 nM | > 10000 nM
CCCCOc1ccc(S(=O)(=O)N(C)[C@@H](CS)C(=O)O)cc1 | 0.3 nM | 500 nM
COc1ccc(S(=O)(=O)N(CCSC(C)=O)Cc2ccccc2)cc1 | > 10000 nM | > 10000 nM

The next lines start with results.

IC50 [1] | SMILES | IC50 [2]
> 10000 nM | CC(=O)SC[C@@H](C)N(CC(=O)OC(C)(C)C)S(=O)(=O)c1ccc(Sc2ccccc2)cc1 | 
> 10000 nM | CC(=O)SC[C@@H](C)N(CC(=O)O)S(=O)(=O)c1ccc(Sc2ccccc2)cc1 | 
40 nM | CCCCOc1ccc(S(=O)(=O)N(CC(=O)O)[C@@H](CS)C(=O)O)cc1 | > 10000 nM
